Earlier results in PMC7589326, “Synthesis and Pharmacological Evaluation of Fluorinated Quinoxaline‐Based κ‐Opioid Receptor (KOR) Agonists Designed for PET Studies” (Chemmedchem, 2020).

Chains of the proteins cited; added tags and fusions are not shown. Lines headed by an entry give the natural chain unless they say otherwise; changes in a name come on top.
UniProt P41144: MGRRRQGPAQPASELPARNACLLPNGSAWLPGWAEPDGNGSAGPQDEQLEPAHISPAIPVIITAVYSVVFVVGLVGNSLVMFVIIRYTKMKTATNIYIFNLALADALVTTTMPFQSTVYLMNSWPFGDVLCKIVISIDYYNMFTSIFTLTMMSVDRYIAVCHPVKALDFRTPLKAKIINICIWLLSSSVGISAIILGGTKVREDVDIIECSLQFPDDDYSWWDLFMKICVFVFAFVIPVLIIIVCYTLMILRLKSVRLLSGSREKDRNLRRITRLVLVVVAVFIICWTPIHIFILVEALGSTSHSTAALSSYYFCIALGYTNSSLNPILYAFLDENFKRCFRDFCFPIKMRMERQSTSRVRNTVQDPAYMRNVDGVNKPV
UniProt P33533, whole entry: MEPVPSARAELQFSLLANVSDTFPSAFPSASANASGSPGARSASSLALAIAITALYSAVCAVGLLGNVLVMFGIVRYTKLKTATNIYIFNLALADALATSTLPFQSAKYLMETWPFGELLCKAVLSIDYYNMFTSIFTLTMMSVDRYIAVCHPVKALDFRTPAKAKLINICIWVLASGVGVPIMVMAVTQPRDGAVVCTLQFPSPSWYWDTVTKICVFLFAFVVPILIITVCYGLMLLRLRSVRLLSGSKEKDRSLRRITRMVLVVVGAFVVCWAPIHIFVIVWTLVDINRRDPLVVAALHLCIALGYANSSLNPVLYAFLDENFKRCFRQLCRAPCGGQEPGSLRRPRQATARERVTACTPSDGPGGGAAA

Experiments:
[1] = biological target: T1, KOR (Cavia porcellus, UniProt P41144); conditions: read-out: Ki±SEM KOR [3H]U-69,593; cited from earlier work
T1 construct: The thawed guinea pig brain membrane preparation (about 100 μg of the protein) was incubated; tissue Harlan-Winkelmann, Borchen, Germany; host or cells: guinea pig brain membrane homogenate

[2] = biological target: T2, DOR (Rattus norvegicus, UniProt P33533); conditions: read-out: Ki DOR [3H]DPDPE; cited from earlier work
T2 construct: preparations from rat brain were employed in the DOR assay; tissue Harlan-Winkelmann, Borchen, Germany; host or cells: rat brain (Sprague Dawley) membrane homogenate

What does the source list for `COC(=O)N1CCN(C(=O)Cc2ccc(Cl)c(Cl)c2)[C@@H]2[C@@H](N3CCCC3)CCC[C@@H]21` [1c]?
Ki [1]: 1.3 ± 0.4 nM; Ki [2]: 250 nM
